{"sequences": {"note": "Protein sequences, listed by entry. Tags and fused reporters are not part of them. Residues count along the entry.", "UniProt P37231, 224-505": "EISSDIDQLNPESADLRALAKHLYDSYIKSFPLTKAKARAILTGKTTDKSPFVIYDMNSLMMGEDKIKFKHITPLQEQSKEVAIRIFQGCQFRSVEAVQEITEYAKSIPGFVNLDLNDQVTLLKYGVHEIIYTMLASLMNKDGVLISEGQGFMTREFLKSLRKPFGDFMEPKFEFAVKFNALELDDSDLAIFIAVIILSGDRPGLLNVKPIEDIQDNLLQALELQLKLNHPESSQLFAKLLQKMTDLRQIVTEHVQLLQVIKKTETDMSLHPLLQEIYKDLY"}, "source": "patent US20170316147A1", "about": "“METHODS AND SYSTEMS FOR IDENTIFYING LIGAND-PROTEIN BINDING SITES” (King Abdullah University of Science and Technology, priority 2014, published 2017)", "target": "hPPARγ-LBD (Homo sapiens, UniProt P37231)", "assay": "Differential scanning fluorimetry (thermal shift) on hPPARγ-LBD", "type": "binding", "parameters": "human PPARγ (amino acids Glu196-Tyr477); made in house", "details": "seven molar excess of ligand", "description": "PPARγ is a nuclear hormone receptor regulating numerous biological functions including adipogenesis and cell differentiation. Its dysregulation is involved in the onset of diabetes and obesity. The interaction of the ligand binding domain (LBD) of human PPARγ (hPPARγ-LBD) with CoA is one of our most promising predictions, because this interaction achieved a high iDTP score and statistically significant co-citation index (SI Table 3). The pocket predicted by iDTP to bind CoA overlaps with the known ligand binding site of this receptor.\n(§1) This method measures the protein unfolding based on fluorescence detection of the denatured form of the protein [59]. […] Fluorescence changes in the wells were monitored with a photomultiplier tube. […] The melting temperatures, Tm, were obtained by fitting the fluorescence data with a Boltzmann model using the GraphPad Prism software.\nas §1, with “Differential scanning fluorimetry (DSF or Thermofluor). This” for “This”, “measures” for “measures the”, “(Pantoliano et al., 2001).” for “[59].”, “using” for “using the”", "data": [{"smiles": "CN(CCOc1ccc(CC2SC(=O)NC2=O)cc1)c1ccccn1", "note": "(stereo not shown) [Rosiglitazone, reference compound]", "values": [{"measurement": "raise of hPPARγ-LBD Tm compared to the apo-protein", "value": 2, "unit": "°C"}]}]}
